These results are taken from patent US9345677B2, “Compositions, methods and kits relating to HER-2 cleavage” (Incyte Corporation, priority 2003, dated 2016).

The term IC50 denotes the concentration that gives 50% inhibition.

For one test, the target named is T1, MMP2 (Homo sapiens, UniProt P08253).
T1 construct: purchased R&D Systems 902-MP
T1 sequence (P08253 110-660): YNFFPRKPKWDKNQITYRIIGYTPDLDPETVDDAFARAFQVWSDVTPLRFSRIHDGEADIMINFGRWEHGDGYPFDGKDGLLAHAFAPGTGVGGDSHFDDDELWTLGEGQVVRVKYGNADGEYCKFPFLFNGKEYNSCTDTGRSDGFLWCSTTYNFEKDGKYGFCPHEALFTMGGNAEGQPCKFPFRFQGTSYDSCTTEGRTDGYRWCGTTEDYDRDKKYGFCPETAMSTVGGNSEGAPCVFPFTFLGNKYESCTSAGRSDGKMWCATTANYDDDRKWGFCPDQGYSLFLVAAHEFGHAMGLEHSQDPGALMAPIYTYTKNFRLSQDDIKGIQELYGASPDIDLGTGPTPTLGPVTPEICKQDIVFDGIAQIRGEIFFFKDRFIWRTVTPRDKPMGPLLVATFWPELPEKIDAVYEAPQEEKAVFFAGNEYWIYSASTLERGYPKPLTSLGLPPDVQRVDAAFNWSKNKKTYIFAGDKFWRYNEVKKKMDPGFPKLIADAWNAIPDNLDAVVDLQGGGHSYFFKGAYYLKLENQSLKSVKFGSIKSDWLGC
Description: MMP2 fluorogenic peptide biochemical assay. From the text: Source of enzymes for biochemical assays: Except for ADAM17 and MT1-MMP, all recombinant human MMPs and ADAMs were obtained from R&D Systems (Minneapolis, Minn.). Their catalog numbers are as following: MMP1 (901-MP), MMP2 (902-MP), MMP3 (513-MP), MMP7 (907-MP), MMP8 (908-MP), MMP9 (911-MP), MMP10 (910-MP), MMP12 (919-MP), MMP13 (511-MM), ADAM9 (939-AD), and ADAM10 (936-AD). MT1-MMP was obtained from US Biological (Swampscott, Mass.) with a catalog number of M2429. Porcine ADAM17 was purified in house from porcine spleen.
Substrates for biochemical assays: Fluorogenic Peptide substrate, (7-methoxycoumarin-4-yl)acetyl-Pro-Leu-Gly-Leu-(3-[2,4-dinitrophenyl]-L-2,3-diaminopropionyl)-Ala-Arg-NH2 (SEQ ID NO: 46), was obtained from R&D Systems (Minneapolis, Minn.) with a catalog number of ES001. It was used as substrate for MMP1, MMP2, MMP7, MMP8, MMP9, MMP12, MMP13, and MT1-MMP. Fluorogenic Peptide substrate, (7-methoxycoumarin-4-yl)acetyl-Arg-Pro-Lys-Pro-Val-Glu-Nva-Trp-Arg-Lys(2,4-dinitrophenyl)-NH2 (SEQ ID NO: 47), was obtained from R&D Systems with a catalog number of ES002. It was used as substrate for MMP3 and MMP10. […]
In general, 5 mM compound stock was prepared in DMSO. […] The plate was read on a plate reader with excitation of 320 nm and emission of 405 nm. Percentage of inhibition was calculated for each concentration and IC50 value was generated from curve fitting. […]

Another test has as its system Her-2 cleavage. Particulars: literature reports; cited from earlier work.
In test [1] the test system is AKT and ERK phosphorylation in BT474 cells. Nature of the test: Western blot of phospho-ERK and phospho-AKT. Type of test: cell-based, human. Particulars: sheddase inhibitor less than 5 μM alone or 0.2 μg/ml Herceptin alone. The protocol:
In experiments to determine the effects of MPI treatment on cell signaling, BT474 cells were plated at 1×10^5 cells/mL in 2 mL of media (RPMI+10% FCS+10 μg/mL insulin) in 12-well plates. […] After 5 days, the cells were harvested, lysed in 200 μL ice-cold lysis buffer containing 10 mM Tris, pH 7.2, 150 mM NaCl, 1% Triton X-100, 1% deoxycholic acid, 0.1% SDS, 50 μg/mL leupeptin, 50 μg/mL aprotinin, 1 mM sodium vanadate, 50 mM sodium fluoride, 1 mM PMSF. After 10 minutes on ice, the samples were microfuged at 13,000 rpm for 10 minutes at 4° C. and the supernatants collected. For analysis, 15 μL of 2× Laemmli sample buffer (BioRad, cat#161-0737) was added to 15 μL of extract, samples boiled for 5 minutes and loaded onto 12-well 12% Tris-Glycine gels (Novex, cat# EC60052). Gels were run in 1× Tris-Glycine-SDS buffer (Gibco BRL) using Novex minigel apparatus for approximately 1.5 hours. Following electrophoresis, proteins were transferred onto PVDF membrane (NEN, cat#NEF1000) in 1× Tris-Glycine buffer (Biorad, cat#161-0734) containing 20% MeOH for 2-3 hours using BioRad miniblot transfer system. After transfer, membranes were blocked in PBS+5% milk+0.1% Tween-20 for 1 h at RT. […]
Phosphorylation of AKT and the MAP kinase ERK were monitored by western blot analysis using phospho-specific antibodies.
Background: Immunoblotting shows a protein as a band on a membrane.

The subject of test [2] is AKT and ERK phosphorylation in MCF7 cells. Nature of the test: Western blot of phospho-ERK and phospho-AKT. It counts as cell-based, human. The settings on record: Her-2 non-overexpressing MCF7 cells.
Another test has as its system BT474 cells. Description: Cell proliferation assay (cell counting, BrdU incorporation). It counts as cell-based, human. The procedure:
(§1) Proliferation assays were routinely performed with two protocols: cell counting and BrdU incorporation assay. For cell counting, cells (1×10^5) were seeded in each well of 12 well plates and cultured overnight. Then, cells were treated for 6 days with drugs and compounds as indicated in individual experiments. Culture media were replaced with fresh media containing the same concentrations of drugs and compounds after the first 3 days of treatment. Viable cells were counted with hemacytometers immediately after trypan blue staining.
(§2) The BrdU incorporation assay was performed using a colorimetric Cell Proliferation ELISA kit per manufacturer's instruction (#1647229, Roche Molecular Biochemicals), measuring DNA synthesis in proliferating cells. Briefly, cells (5−10×10^3) were seeded in each well of 96 well plates and cultured overnight. […] Finally, 100 μl/well of substrate solution was added and the results were obtained using a microplate reader (Spectra Max PLUS, Molecular Devices) during color development. Multiple readings at various time points were obtained and results in the linear range of the assay were obtained. […]
After varying periods of cell culture (2-6 days), the cell cultures were harvested and cell growth was assessed by cell count and BRdU incorporation using standard protocols.
(Incorporation of labelled thymidine or its analogues reports DNA synthesis.)

Test [3] has as its system Her-2 cleavage in BT-474 cells. Nature of the test: Western blot of Her-2 ECD (105 kDa) in culture supernatants. It counts as cell-based, human. Particulars: suboptimal doses.
In another test the test system is MCF7 cells. Description: Cell proliferation assay (cell counting, BrdU incorporation). Type of test: cell-based, human. The settings on record: single agent or combination of Herceptin and active sheddase inhibitor. The protocol:
as §1
as §2, with “overnight. The next day, culture media were replaced with fresh media containing drugs and compounds as indicated for individual experiments.” for “overnight.”

Turning to `CN1CC2(CC2)C[C@H](C(=O)NO)[C@H]1C(=O)N1CCN(c2ccc(C(F)(F)F)cn2)CC1` [Compound 6], the concentration for half-maximal inhibition (IC50) against MMP2 came out at 0.65 nM.
In the case of “Herceptin: anti-Her-2 monoclonal antibody; humanized antibody that binds Her-2 directly [reference compound]”, the “cleavage of Her-2 (p185) to p95 and ECD” value in the test on Her-2 cleavage was “inhibit enzymatic cleavage”. Further, in test [1], the “AKT or ERK phosphorylation, single agent” value was “did not demonstrate a detectable effect”. For the same compound, the “AKT and MAP kinase pathways” value in test [2] is “not impacted”. For the same compound, the “effect on BT474 cell growth” value with BT474 cells (0.2 μg/ml) is “without significant effect”. Moreover, in the test with BT474 cells (BT474 cells, concentrations above 1 μg/ml), the maximal growth inhibition entry was “approximately 50%”. Also, the “prevention of Her-2 cleavage in vitro” value in test [3] is “does not occur”. In addition, the “growth of MCF7 cells” value with MCF7 cells is given as “not significantly impacted”.
